Laboratory results taken from paper PMC10848080 (CNS Neuroscience & Therapeutics, 2023).

Test system: DA in rat striatum
Experiment: MALDI-MS imaging of DA in rat brain
Type: in vivo
Conditions: 6-OHDA-lesioned rats, 1 h after treatment
Description: The MALDI‐MS imaging method followed Yang W's description[24] with some modifications. The brain tissues of rats were isolated 1 h after treatment and frozen in liquid nitrogen immediately, then embedded in 2% CMC‐Na and frozen overnight at −80°C. Striatum sections (20 μm) were prepared by the cryostat microtome (Leica CM1950), then transferred onto conductive ITO glass slides (Bruker) and stored at −80°C until analysis. 2,4,6‐Trimethylpyrylium tetrafluoroborate (TMP‐TFB, Aladdin) was used as the derivatization reagent (7.6 mg/mL in methanol buffered with 3.5 μL of trimethylamine), and α‐cyano‐4‐hydroxycinnamic acid (CHCA, Aladdin; 10 mg/mL, prepared in 70% methanol solution containing 0.1% trifluoroacetic acid) was used as the MALDI matrix. MALDI‐MS imaging experiments were performed on the MALDI‐FT‐ICR mass spectrometer (Solarix 9.4 T, Bruker) in positive‐ion mode. Set the pixel size of the imaging resolution at 80 nm to obtain the optimal acquisition performance. MS imaging data were visualized using Fleximaging (Bruker). After the data were normalized by the total ion current, the DA mass spectrum peak (m/z 258.1502 ± 0.002) was determined. The colored spots in the image represent the location of the neurotransmitter, and the color of each spot is related to the signal intensity detected by the laser at each pixel.

Structure (SMILES): N[C@@H](Cc1ccc(O)c(O)c1)C(=O)O [L‐dopa, Levodopa]
- DA level in lesioned (left side) striatum, MALDI-MS imaging: no obvious DA signal
- DA level in non-lesioned (right side) striatum, MALDI-MS imaging: increased
